Reference: patent US7060681B2, “Compositions and methods for use of bioactive agents derived from sulfated and sulfonated amino acids” (Ecole Polytechnique Federale de Lausanne (EPFL), priority 2001, dated 2006)

Amino acid sequences for entries named in this document (tags omitted). A change or cut given only in a name is not applied to a line headed by its entry.
UniProt P01008: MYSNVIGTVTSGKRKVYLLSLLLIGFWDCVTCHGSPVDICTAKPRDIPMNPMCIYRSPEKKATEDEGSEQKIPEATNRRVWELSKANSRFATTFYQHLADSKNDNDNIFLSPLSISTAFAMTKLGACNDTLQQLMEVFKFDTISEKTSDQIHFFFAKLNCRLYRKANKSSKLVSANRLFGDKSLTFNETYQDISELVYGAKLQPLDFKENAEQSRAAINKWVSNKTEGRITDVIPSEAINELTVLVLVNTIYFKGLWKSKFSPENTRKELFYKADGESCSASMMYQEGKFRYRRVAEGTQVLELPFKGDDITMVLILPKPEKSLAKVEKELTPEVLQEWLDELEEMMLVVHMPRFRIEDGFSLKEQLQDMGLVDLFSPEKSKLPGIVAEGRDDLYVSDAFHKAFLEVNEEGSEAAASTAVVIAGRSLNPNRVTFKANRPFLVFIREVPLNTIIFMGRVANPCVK

Target: antithrombin III heparin-binding domain (Homo sapiens, UniProt P01008, C160A/N159A)
Assay: Library screening with fluorescently labeled peptide representing the antithrombin III heparin-binding domain
Conditions: in the presence of a 10 fold molar excess of heparin

## Ac-Ser(SO3)-Val-Phe-Val-Ser(SO3)-Ser(SO3)-Val-Val-Ser(SO3)-Ser(SO3)-PEGA
  Binding of ATIII heparin-binding domain peptide, second library screening (in words): strongest binding
